{"sequences": {"note": "By UniProt entry, the sequences of proteins in these tests, tags left out.", "UniProt P07711, whole entry": "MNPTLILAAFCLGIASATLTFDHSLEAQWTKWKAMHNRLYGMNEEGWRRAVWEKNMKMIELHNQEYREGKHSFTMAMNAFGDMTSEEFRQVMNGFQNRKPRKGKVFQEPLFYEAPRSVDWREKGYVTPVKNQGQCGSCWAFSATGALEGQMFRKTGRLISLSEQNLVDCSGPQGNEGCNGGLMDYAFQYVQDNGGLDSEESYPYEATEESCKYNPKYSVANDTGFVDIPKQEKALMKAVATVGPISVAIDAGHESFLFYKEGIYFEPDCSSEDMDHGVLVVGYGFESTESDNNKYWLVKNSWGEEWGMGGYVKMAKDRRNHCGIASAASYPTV"}, "source": "PubChem BioAssay AID2178", "about": "(The Scripps Research Institute Molecular Screening Center, 2009)", "note": "The entries are a selection whose mix differs from that of the whole data set. Calls of active or inactive are those of the source.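 The calls were made as follows: active = average inhibition across replicates above the hit cutoff set in the earlier primary screen; inactive = the rest.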"}
{"target": "Procathepsin L (Homo sapiens) (UniProt P07711)", "assay": "CTSL1 protease inhibition confirmation – biochemical, QFRET, triplicate, counter-screen for PFM18AAP inhibitor project (AID 2178);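 also: 0% = median of test compound wells and 100% = Z-Phe-Ala-diazomethylketone 1 µM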", "conditions": "purified cathepsin L1, Z-Leu-Arg-MCA fluorescence; at 5.96 µM; stronger effect = higher value", "procedure,_shortened": "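System: Purified cathepsin L1 | Amount: Enzyme 1.5 µg/mL before substrate addition | Also added: Z-Leu-Arg-MCA fluorogenic substrate | Incubation: Enzyme-compound preincubation 30 min, substrate reaction 90 min, 25 °C | Technique: MCA fluorescence measured at substrate addition and at 90 min | Measure: Percent inhibition from fluorescence change | Replicates: Triplicate wells per compound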"}
{"smiles": "Cc1nc2ccc3ccccc3c2o1.O=[N+]([O-])c1cc([N+](=O)[O-])c(O)c([N+](=O)[O-])c1", "inhibition": "inactive: 2.94%"}
{"smiles": "CP(=S)(Nn1cnnc1)Oc1ccccc1", "note": "(configuration not stated)", "inhibition": "inactive: -1.71%"}
